Reference: patent publication US20060172958A1, “Phospholipid scramblase 3” (priority 2003, published 2006)

Legend:
HeLa-PLS3(F258V) cells = experiment: TUNEL apoptosis assay with flow cytometry; format: cell-based
Experimental: Apoptotic assays were performed with annexinV-PE (BD-PharMingen) per manufacturer's protocol. The TUNEL assay (terminal deoxynucleotidyltransferase-mediated dUTP-biotin nick end labeling) was performed according to the manufacturer's protocol (Roche, Switzerland).
A mutant of PLS3 was also constructed by mutating Phe258 to Val. This Phe258 is in a highly conserved calcium-binding motif, and mutation of the corresponding Phe at PLS1 completely abolishes the activity of PLS1.

[1] = test system: 293-vector, 293-PLS3 and 293-PLS3(F258V) cells; experiment: Growth curves (cell counts by trypan blue exclusion); format: cell-based; conditions: three different Na3N concentrations
Experimental: FIG. 13. […] Cells were plated on day 0, and counted at days 1, 2 by trypan blue exclusion. (d) Growth curves in the presence of Na3N at three different concentrations.
Next, we incubated these cells in the presence of Na3N, an uncoupler of oxidative phosphorylation (Simbeni et al., 1990), and compared their growth.

SMILES: Cn1c2ccccc2c2c3c(c4c5ccccc5n(CCC#N)c4c21)CNC3=O [Go6976]
- left shift (decreased apoptosis) by PMA, with Go6976 added (HeLa-PLS3(F258V) cells; 200 nM PMA and 200 nM Go6976, 2 hours): inhibited

SMILES: [N-]=[N+]=[N-].[Na+] [Na3N]
- cell growth rate [1]: same slow growth rate

SMILES: CCCCCCCCCCCCCC(=O)O[C@@H]1[C@@H](C)[C@@]2(O)[C@@H](C=C(CO)C[C@]3(O)C(=O)C(C)=C[C@@H]23)[C@@H]2C(C)(C)[C@]12OC(C)=O [PMA]
- apoptosis (TUNEL) (HeLa-PLS3(F258V) cells; 200 nM PMA, 2 hours): decreased apoptosis
